Test results as given in ChEMBL document CHEMBL3826971 (Bioorg Med Chem Lett, 2016).

Amino acid sequences for entries named in this document (tags omitted). A change or cut given only in a name is not applied to a line headed by its entry.
UniProt P06276, whole entry, looked up: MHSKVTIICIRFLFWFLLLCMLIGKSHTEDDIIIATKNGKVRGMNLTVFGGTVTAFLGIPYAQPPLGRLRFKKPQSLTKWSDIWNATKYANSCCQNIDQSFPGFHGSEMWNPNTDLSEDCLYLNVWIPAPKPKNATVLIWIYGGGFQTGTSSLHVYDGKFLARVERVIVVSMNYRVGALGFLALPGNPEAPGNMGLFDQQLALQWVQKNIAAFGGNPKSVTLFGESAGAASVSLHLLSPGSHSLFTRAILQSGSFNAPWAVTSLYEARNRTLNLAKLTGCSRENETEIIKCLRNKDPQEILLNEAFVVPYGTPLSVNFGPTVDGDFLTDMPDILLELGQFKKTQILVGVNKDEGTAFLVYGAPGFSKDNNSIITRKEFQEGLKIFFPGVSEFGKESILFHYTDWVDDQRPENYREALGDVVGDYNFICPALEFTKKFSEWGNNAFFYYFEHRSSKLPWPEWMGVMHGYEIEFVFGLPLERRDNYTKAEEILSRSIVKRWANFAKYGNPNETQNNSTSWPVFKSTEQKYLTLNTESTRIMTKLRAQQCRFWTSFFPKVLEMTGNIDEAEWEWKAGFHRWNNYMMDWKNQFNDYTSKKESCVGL
UniProt P22303: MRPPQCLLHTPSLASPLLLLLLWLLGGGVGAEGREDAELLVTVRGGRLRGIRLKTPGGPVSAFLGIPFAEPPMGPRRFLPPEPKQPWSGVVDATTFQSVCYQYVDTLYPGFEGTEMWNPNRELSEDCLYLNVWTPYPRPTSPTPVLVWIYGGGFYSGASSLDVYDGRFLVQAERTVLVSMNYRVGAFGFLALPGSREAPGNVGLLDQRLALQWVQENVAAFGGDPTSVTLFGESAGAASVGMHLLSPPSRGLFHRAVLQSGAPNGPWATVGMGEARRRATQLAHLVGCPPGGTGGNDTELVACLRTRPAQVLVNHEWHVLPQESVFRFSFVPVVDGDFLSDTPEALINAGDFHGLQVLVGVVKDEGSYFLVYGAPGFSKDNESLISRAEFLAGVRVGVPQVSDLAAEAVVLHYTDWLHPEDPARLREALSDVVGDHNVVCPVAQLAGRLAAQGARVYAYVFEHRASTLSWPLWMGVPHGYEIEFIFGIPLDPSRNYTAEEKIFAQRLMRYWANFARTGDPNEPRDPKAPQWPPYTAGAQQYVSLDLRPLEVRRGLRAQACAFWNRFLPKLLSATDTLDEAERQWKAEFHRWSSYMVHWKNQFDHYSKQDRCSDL

Key:
[1] = biological target: Cholinesterases; ACHE & BCHE (Homo sapiens) (UniProt P06276+P22303); test: Selectivity ratio, ratio of IC50 for human plasma BChE to IC50 for human AChE
[2] = Selectivity ratio, ratio of Ki for horse serum BChE to Ki for fetal bovine serum AChE

CN(C)C(=O)Oc1ccc[n+](C)c1.[Br-] [PYRIDOSTIGMINE BROMIDE]
Ratio IC50 [1]: 2.9 | Ratio Ki [2]: 6
